Literature values as cited in patent US20050014734A1, “Modulation of interleukin-10 by DHEA” (Genovate Biotechnology Co., Ltd., priority 2003, published 2005).

Conditions: oral administration; cited from earlier work

| SMILES | Uptake by the GI tract |
| --- | --- |
| C[C@]12CC[C@H](O)CC1=CC[C@@H]1[C@@H]2CC[C@]2(C)C(=O)CC[C@@H]12 [DHEA form I, dehydroepiandrosterone] | good uptake |
| C[C@]12CC[C@H](O)CC1=CC[C@@H]1[C@@H]2CC[C@]2(C)C(=O)CC[C@@H]12 [DHEA form II, dehydroepiandrosterone] | good uptake |
